This test addresses Tyrosine-protein kinase ABL1 (Homo sapiens) (UniProt P00519). As to the kind of experiment: ABL1 kinase (ABL1-N-HiBiT) enzymatic inhibition screen - Functional assay. Conditions: luminescence. The source says: National Center for Advancing Translational Sciences (NCATS),
National Institute of Health (NIH), Maryland
Discovery and optimization of novel protein-binding ligands underlies many of the methods and applications of biology, drug discovery, clinical diagnostics, and environmental toxicology. Assays for detecting the interaction of, for example, a molecule with a macromolecular target also referred to here as the target of interest (TOI) is dependent on a compatible output technology. Depending on the nature and knowledge surrounding the TOI, whether a receptor, enzyme, regulatory subunit or scaffold, or a sequence-defined nucleic acid folded into a complex tertiary structure, assay strategies can vary widely.
Here we exploit ligand-biased changes in the structural dynamics of the target protein to control reporter alpha complementation allowing a non-competitive, non-functional, non-separation measure of ligand-target interaction. […]
SEQUENCE No. (e.g., 1, 2, 3, etc.); […] (e.g., C. elegans, Compounds, Incubation, Read, etc.); VALUE and DESCRIPTION. […]
7. […] (Functional assay) Luminescence measured using CCD-based camera (ViewLux) with settings as follows: Exposure, 1 sec; Gain, High; Speed, Slow; Binning, 2X. […]

The chains behind the UniProt entries cited, without tags or fusion partners.
UniProt P00519, whole entry, looked up: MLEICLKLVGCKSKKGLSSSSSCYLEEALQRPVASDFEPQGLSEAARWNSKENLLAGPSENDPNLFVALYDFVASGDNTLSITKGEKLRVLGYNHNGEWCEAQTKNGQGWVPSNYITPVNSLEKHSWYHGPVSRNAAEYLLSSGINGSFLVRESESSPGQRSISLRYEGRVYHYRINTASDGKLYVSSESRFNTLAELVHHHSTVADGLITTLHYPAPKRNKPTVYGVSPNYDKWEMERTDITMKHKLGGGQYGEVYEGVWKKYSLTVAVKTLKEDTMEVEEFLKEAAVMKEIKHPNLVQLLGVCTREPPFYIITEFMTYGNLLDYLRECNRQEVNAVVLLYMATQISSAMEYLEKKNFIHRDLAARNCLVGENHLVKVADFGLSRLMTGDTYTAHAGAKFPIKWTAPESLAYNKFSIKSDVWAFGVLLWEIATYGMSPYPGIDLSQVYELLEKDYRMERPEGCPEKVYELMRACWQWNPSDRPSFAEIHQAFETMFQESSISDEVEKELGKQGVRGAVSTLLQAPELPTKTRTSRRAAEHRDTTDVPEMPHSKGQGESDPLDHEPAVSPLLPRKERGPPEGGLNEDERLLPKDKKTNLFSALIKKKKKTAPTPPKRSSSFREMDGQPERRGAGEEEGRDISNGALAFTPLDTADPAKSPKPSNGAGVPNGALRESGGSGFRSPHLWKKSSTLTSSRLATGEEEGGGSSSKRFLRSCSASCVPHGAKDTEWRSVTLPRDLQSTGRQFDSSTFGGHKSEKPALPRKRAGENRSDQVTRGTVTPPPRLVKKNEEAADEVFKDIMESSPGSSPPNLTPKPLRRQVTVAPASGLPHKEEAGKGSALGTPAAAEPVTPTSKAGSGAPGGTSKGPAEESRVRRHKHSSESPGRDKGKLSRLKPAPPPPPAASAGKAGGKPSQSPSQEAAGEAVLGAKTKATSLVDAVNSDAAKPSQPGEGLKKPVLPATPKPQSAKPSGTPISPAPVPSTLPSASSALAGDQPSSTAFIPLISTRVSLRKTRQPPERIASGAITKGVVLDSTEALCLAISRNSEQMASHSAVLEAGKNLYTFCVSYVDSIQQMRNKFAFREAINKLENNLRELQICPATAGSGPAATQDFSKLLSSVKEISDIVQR

The entries are a selection whose mix differs from that of the whole data set. Inconclusive results are not listed. The source made the active and inactive calls. Calls come from the whole dose curve.

With `Cc1ccc(NC(=O)c2ccc(CN3CCN(C)CC3)cc2)cc1Nc1nc(-c2cccnc2)cs1`, the Potency is active: 12.6 µM.

Source of the values: PubChem BioAssay AID1963317 (National Center for Advancing Translational Sciences (NCATS), 2024).
